# Experimental data taken from PubChem BioAssay AID588342 (National Center for Advancing Translational Sciences (NCATS), 2011).
# Protein sequences, listed by entry. Tags and fused reporters are not part of them.
# UniProt P08659, whole entry: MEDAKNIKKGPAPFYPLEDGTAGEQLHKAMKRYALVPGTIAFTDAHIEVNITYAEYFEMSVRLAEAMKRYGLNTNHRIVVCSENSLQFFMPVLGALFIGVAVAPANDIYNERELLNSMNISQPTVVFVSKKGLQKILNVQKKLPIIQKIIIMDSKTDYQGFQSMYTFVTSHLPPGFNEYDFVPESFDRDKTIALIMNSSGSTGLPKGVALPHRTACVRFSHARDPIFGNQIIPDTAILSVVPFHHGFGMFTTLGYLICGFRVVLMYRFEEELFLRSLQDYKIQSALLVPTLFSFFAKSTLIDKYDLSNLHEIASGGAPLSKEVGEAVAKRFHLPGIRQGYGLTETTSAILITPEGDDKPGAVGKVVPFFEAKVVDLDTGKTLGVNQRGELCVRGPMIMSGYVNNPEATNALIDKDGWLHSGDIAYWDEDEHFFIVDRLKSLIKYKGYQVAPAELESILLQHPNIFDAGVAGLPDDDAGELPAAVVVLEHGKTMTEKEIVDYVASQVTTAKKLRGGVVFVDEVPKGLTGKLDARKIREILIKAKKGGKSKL
# Only a part is listed here, and it is no random draw. Results filed as inconclusive are left out. Some salts and complexes are drawn in separate pieces, as the source files them; their charges need not balance. Calls of active or inactive are those of the source. Calls come from the whole dose curve; as a rule, active = well fitted inhibition curve with a large enough effect; inconclusive = small, poorly fitted or top-dose-only effect; inactive = flat fitted curve, though single readings scatter.
# Biological target: Luciferin 4-monooxygenase (Photinus pyralis) (UniProt P08659)
# Assay: qHTS profiling assay for firefly luciferase inhibitor/activator using purifed enzyme and Km concentrations of substrates (counterscreen for miR-21 project);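 note: plate controls were vehicle for no effect and reference inhibitor for full effect; nearly all actives have a fitted effect of over 55% in size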
# Details: purified FLuc, luminescence inhibition; at 57.5 µM (top of the series)
row,Compound,"activity change, negative = inhibition"
1,CCN1CCC(Nc2cccc(F)c2)CC1,inactive: -1.83%
2,Cc1ccccc1C(=O)NCC1(N(C)C)CCCCC1,inactive: 2.8%
3,CN(C)c1ccc(C(=O)NCC2(N3CCCCC3)CCCCC2)cc1,inactive: -1.9%
4,O=C(NCC1(N2CCCCC2)CCCCC1)c1ccco1,inactive: 2.49%
5,CC(C)(C)c1ccc(C(=O)NCC2(N3CCOCC3)CCCCC2)cc1,inactive: 0.828%
6,CN(C)C1(CNC(=O)c2ccc(C(C)(C)C)cc2)CCCCC1,inactive: -0.577%
7,COc1cc(OC)cc(C(=O)NCC2(N3CCCCC3)CCCCC2)c1,inactive: 2.12%
8,Fc1ccccc1NC1CCN(Cc2ccccc2)CC1,inactive: -2.16%
9,Cc1ccc(C(=O)NCC2(N3CCCCC3)CCCCC2)o1,inactive: 2.45%
10,COc1cc(OC)cc(C(=O)NCC2(N3CCOCC3)CCCCC2)c1,inactive: 0.339%
11,COc1cc(C(=O)NCC2(N3CCOCC3)CCCCC2)cc(OC)c1OC,inactive: 5.97%
12,COc1cccc(C(=O)N(c2cc(C)cc(C)c2)C2CCN(C(=O)OC(C)(C)C)CC2)c1,inactive: 1.32%
13,CCC(CO)(C(=O)OC1CN2CCC1CC2)c1ccccc1 (centres undefined),inactive: 7.52%
14,CN1CCC(Nc2ccc(Cl)cc2)CC1,inactive: -0.0521%
15,CCCOc1ccc(C)cc1CN(CCCl)CCCl,inactive: 0.35%
16,CN1CCC(Nc2ccc(F)c(Cl)c2)CC1,inactive: -0.0726%
17,CCOc1ncccc1C(=O)NCC1(N2CCOCC2)CCCCC1,inactive: 4.74%
18,O=C(O)C1(Nc2ccccc2)CCN(Cc2ccccc2)CC1,inactive: -0.0162%
19,CC(C)(C)OC(=O)N1CCC(Nc2ccccc2)CC1,inactive: 0.217%
20,CCCOc1ccc(C(=O)NCC2(N(C)C)CCCCC2)cc1,inactive: -2.11%
21,CCOC(=O)N1CCC(Nc2ccc(C)cc2)CC1,inactive: -1.49%

row,Compound,"activity change, negative = inhibition"
1,N/C(=N\O)c1c(N)no[n+]1[O-],inactive: 2.7%
2,O=C(O)c1cccc(Nc2c([N+](=O)[O-])cc([N+](=O)[O-])cc2[N+](=O)[O-])c1,inactive: -3.26%
3,CCc1cc(C(=O)NCC2(N3CCCCC3)CCCCC2)sc1C,inactive: -1.43%
4,O=C(OC1CN2CCC1CC2)C1c2ccccc2C=Cc2ccccc21 (centres undefined),inactive: 0.221%
5,O=C(NCC1(N2CCOCC2)CCCCC1)c1cc(Br)ccc1Cl,inactive: 3.63%
6,COc1ccc(C(=O)NCC2(N3CCOCC3)CCCCC2)cc1OC,inactive: 0.137%
7,CN(C)C1(CNC(=O)c2cccc(C#N)c2)CCCCC1,inactive: 0.0355%
8,O=C(NCC1(N2CCOCC2)CCCCC1)c1ccccc1,inactive: -2.67%
9,CCCN1CCC(Nc2cc(OC)cc(OC)c2)CC1,inactive: 0.976%
10,c1ccc(CN2CCC(Nc3ccccc3)CC2)cc1,inactive: -0.278%
11,N#Cc1ccc(C(=O)NCC2(N3CCCCC3)CCCCC2)cc1,inactive: 1.4%
12,O=C(NCC1(N2CCOCC2)CCCCC1)c1ccccc1[N+](=O)[O-],inactive: -1.4%
13,O=C(NCC1(N2CCOCC2)CCCCC1)c1ccc([N+](=O)[O-])cc1,inactive: 0.154%
14,CC(C)(C)OC(=O)N1CCC(N(C(=O)c2ccccc2)c2ccc(Cl)cc2)CC1,inactive: -0.833%
15,CCOC(=O)C(CC)C1=NC(C)(C)Cc2ccccc21.O=[N+]([O-])c1cc([N+](=O)[O-])c(O)c([N+](=O)[O-])c1 (centres undefined),inactive: 1.62%
16,O=[N+]([O-])c1cc([N+](=O)[O-])c(NCC2CCS(=O)(=O)C2)c([N+](=O)[O-])c1 (centres undefined),inactive: -1.51%
17,CCCOc1cccc(C(=O)NCC2(N3CCOCC3)CCCCC2)c1,inactive: -7.47%
18,O=C(NCC1(N2CCCCC2)CCCCC1)c1cccc(C(F)(F)F)c1,inactive: 3.99%
19,COc1cc(C(=O)NCC2(N3CCCCC3)CCCCC2)ccc1OC(F)F,inactive: -0.161%
20,O=C(NCC1(N2CCOCC2)CCCCC1)c1cc(=O)[nH]c2ccccc12,inactive: -0.448%
21,CN1CCN(CCOC(=O)C(O)(c2ccccc2)c2ccccc2)CC1,inactive: -1.76%

row,Compound,"activity change, negative = inhibition"
1,CC(C)c1ccc(C(=O)NCC2(N3CCOCC3)CCCCC2)cc1,inactive: 1.88%
2,COc1ccc(NC2CCN(C(=O)OC(C)(C)C)CC2)cc1,inactive: -2.28%
3,O=C(NCC1(N2CCCCC2)CCCCC1)c1ccc(OC(F)F)cc1,inactive: 2.63%
4,N#CC1(Nc2ccccc2)CCN(CCc2ccccc2)CC1,inactive: 1.48%
5,CCN1CCC(Nc2ccc(Cl)cc2)CC1,inactive: -1.57%
6,CSc1ccc(C(=O)NCC2(N3CCOCC3)CCCCC2)cc1,inactive: 3.23%
7,CCOc1ccc(C(=O)NCC2(N3CCOCC3)CCCCC2)cc1,inactive: 5.03%
8,O=C(NCC1(N2CCCCC2)CCCCC1)c1cccc([N+](=O)[O-])c1,inactive: 4.79%
9,O=C(OC1CN2CCC1CC2)c1ccc([N+](=O)[O-])cc1 (centres undefined),inactive: 5.16%
10,COc1ccc2c(c1O)-c1c(O)c(OC)cc3c1[C@H](C2)[N+](C)(C)CC3.O=[N+]([O-])c1cc([N+](=O)[O-])c([O-])c([N+](=O)[O-])c1[O-],inactive: -9.86%
11,O=C(NCC1(N2CCCCC2)CCCCC1)c1cncc(Br)c1,inactive: -0.532%
12,O=C(NCC1(N2CCOCC2)CCCCC1)c1ccccc1Br,inactive: -7.88%
13,CCCOc1ccc(C(=O)NCC2(N(C)C)CCCCC2)cc1OC,inactive: -0.475%
14,CCCCOc1ccccc1C(=O)NCC1(N2CCOCC2)CCCCC1,inactive: -10.2%
15,O=[N+]([O-])c1cc([N+](=O)[O-])c(OC2CCCCC2O)c([N+](=O)[O-])c1 (centres undefined),inactive: -0.658%
16,CN(C)c1cccc(C(=O)NCC2(N3CCCCC3)CCCCC2)c1,inactive: 0.0947%
17,COc1ccc(CN(CCCl)CCCl)cc1Cl,inactive: 4.19%
18,COc1cc(OC)c(C(=O)NCC2(N(C)C)CCCCC2)cc1OC,inactive: 0.16%
19,Cc1cc(C)cc(N(C(=O)c2ccccc2)C2CCN(C(=O)OC(C)(C)C)CC2)c1,inactive: -0.485%
20,O=C(NCC1(N2CCCCC2)CCCCC1)c1ccc(Cl)nc1,inactive: 1.46%
21,O=C(NCC1(N2CCOCC2)CCCCC1)c1cc2ccccc2o1,inactive: 2.18%

row,Compound,"activity change, negative = inhibition"
1,COc1ccc(Cl)cc1C(=O)NCC1(N2CCOCC2)CCCCC1,inactive: -0.86%
2,N#CC1(Nc2ccccc2)CCN(Cc2ccccc2)CC1,inactive: -0.594%
3,O=C(NCC1(N2CCCCC2)CCCCC1)c1ccc(Cl)s1,inactive: 2.6%
4,O=C(OC1CN2CCC1CC2)C1c2ccccc2Oc2ccccc21 (centres undefined),inactive: 4.47%
5,CCOC(=O)N1CCC(Nc2ccc(OC)cc2)CC1,inactive: 3.31%
6,CC(C)(C)OC(=O)N1CCC(N(C(=O)c2ccccc2)c2ccc(F)cc2)CC1,inactive: -0.617%
7,COc1ccc(C(=O)NCC2(N3CCCCC3)CCCCC2)c(OC)c1OC,inactive: -0.454%
8,COc1ccc(C(=O)NCC2(N3CCCCC3)CCCCC2)cc1,inactive: -0.142%
9,O=C(NCC1(N2CCCCC2)CCCCC1)c1cccs1,inactive: -1.76%
10,O=C(NCC1(N2CCCCC2)CCCCC1)c1ccc(=O)[nH]c1,inactive: 0.361%
11,CSc1ccccc1C(=O)NCC1(N2CCCCC2)CCCCC1,inactive: 2.24%
12,Cc1ccc(OCC(C)C)c(CN(CCCl)CCCl)c1,inactive: -2.86%
13,CCOC(=O)N1CCC(Nc2cccc(C)c2)CC1,inactive: -1.04%
14,COc1cc(C(=O)NCC2(N(C)C)CCCCC2)ccc1OC(F)F,inactive: -1.85%
15,O=C(NCC1(N2CCOCC2)CCCCC1)c1ccc(Cl)cc1,inactive: -8.58%
16,CCOc1ccc(C)cc1CN(CCCl)CCCl,inactive: -1.73%
17,COc1ccccc1C(=O)NCC1(N2CCOCC2)CCCCC1,inactive: 6.26%
18,COc1ccc(NC2CCN(CCc3ccccc3)CC2)c(OC)c1,inactive: -0.498%
19,CCOC(=O)N1CCC(Nc2ccc(F)cc2)CC1,inactive: -1.29%
20,CCCCOc1ccc(C(=O)NCC2(N3CCOCC3)CCCCC2)cc1,inactive: -4.52%
21,O=C(NCC1(N2CCCCC2)CCCCC1)c1ccc(F)cc1,inactive: 3.67%
